This assay deals with T1, Aldo-keto reductase family 1 member C3 (Homo sapiens, UniProt P42330).
T1 sequence (P42330 whole entry): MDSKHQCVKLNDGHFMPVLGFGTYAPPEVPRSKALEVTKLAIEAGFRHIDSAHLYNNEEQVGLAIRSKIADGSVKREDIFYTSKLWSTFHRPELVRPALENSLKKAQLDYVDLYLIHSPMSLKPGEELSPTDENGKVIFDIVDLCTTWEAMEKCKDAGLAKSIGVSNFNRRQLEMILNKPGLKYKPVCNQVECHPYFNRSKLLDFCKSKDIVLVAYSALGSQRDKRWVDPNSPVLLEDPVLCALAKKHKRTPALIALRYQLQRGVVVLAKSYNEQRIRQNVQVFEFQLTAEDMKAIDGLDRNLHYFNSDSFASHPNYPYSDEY
As to the kind of experiment: biochemical.

As a reminder, the IC50 is the concentration that inhibits the measured activity by half.

The molecule `COc1ccc2cc([C@H](C)C(=O)O)ccc2c1` [NAPROXEN] displayed an IC50 of 1100 nM.

These data come from ChEMBL document CHEMBL2169839 (J Med Chem, 2012).
